Values quoted from earlier work in patent US10000498B2, “Selective proton coupled folate transporter and folate receptor, and GARFTase inhibitor compounds and methods of using the same” (Duquesne University of the Holy Spirit, priority 2008, dated 2018).

Amino acid sequences for entries named in this document (tags omitted). Residues count along the entry.
UniProt Q64737, 2-1010 limits assumed: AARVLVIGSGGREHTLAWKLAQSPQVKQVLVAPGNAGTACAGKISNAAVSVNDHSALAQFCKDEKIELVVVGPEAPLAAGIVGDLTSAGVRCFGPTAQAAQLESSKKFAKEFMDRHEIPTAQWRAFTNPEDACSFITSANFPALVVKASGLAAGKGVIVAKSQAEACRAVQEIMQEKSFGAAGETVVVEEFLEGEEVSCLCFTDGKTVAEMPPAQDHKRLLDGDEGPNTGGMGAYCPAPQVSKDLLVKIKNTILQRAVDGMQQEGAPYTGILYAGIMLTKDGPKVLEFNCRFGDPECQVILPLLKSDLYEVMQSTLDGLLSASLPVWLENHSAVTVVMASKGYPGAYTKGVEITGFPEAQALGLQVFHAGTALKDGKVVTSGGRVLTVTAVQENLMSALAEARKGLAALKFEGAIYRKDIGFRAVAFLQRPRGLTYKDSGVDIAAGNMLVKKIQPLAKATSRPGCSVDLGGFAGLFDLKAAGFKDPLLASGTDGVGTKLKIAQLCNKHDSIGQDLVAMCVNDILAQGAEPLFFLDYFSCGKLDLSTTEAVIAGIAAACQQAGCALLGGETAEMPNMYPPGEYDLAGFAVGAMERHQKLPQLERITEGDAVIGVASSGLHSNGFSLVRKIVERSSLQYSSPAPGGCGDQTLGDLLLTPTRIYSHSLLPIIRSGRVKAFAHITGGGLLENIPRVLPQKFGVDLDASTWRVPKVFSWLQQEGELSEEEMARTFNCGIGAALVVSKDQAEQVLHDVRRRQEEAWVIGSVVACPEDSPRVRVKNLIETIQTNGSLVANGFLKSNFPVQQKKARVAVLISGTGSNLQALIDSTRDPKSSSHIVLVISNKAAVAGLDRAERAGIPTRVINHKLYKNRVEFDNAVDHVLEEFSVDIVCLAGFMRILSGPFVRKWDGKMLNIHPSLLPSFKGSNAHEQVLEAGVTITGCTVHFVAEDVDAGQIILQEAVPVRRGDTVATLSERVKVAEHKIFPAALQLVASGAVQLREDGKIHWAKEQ

Biological target: purified recombinant mouse GARFTase (Mus musculus, UniProt Q64737)
Conditions: Deng et al., 2008; cited from earlier work

Nc1nc2[nH]c(CCCc3ccc(C(=O)NC(CCC(=O)O)C(=O)O)cc3)cc2c(=O)[nH]1 (stereo not shown)
GARFTase inhibition previously reported: potently inhibit GARFTase
